In one experiment the target is Human-SGLT1 (Homo sapiens, UniProt P13866). As to the kind of experiment: SGLT1 glucose transport assay ([14C]-methyl α-D-glucopyranoside uptake). The note with it: read-out: Human-SGLT1 IC50; cells stably expressing Human-SGLT1, 37° C. for 2 hours.
The target of the next experiment is Human-SGLT2 (Homo sapiens, UniProt P31639). The experiment can be described thus: SGLT2 glucose transport assay ([14C]-methyl α-D-glucopyranoside uptake). The note with it: read-out: Human-SGLT2 IC50; cells stably expressing Human-SGLT2, 37° C. for 2 hours. As for the experimental part: The effect of the compound on the glucose transport activity of the SGLT2 transporter was detected by measuring the amount of [^14C]-labeled glucose entering cells highly expressing Human-SGLT2.
The cells stably expressing Human-SGLT2 used in the assay were constructed by Shanghai WuXi AppTec. The SGLT2 cells were plated on a 96-well cell culture plate (Greiner) and cultured at 5% CO2, 37° C. overnight.
• 1) Assay buffer: 10 mM HEPES, 1.2 mM MgCl2, 4.7 mM KCl, 2.2 mM CaCl2 and 120 mM NaCl. • 2) Stop buffer: 10 mM HEPES, 1.2 mM MgCl2, 4.7 mM KCl, 2.2 mM CaCl2, 120 mM NaCl and 1 μM LX4211. • 3) The compound with a starting concentration of 10 μM was serially diluted 5-fold with 100% DMSO to 8 concentrations. • 4) 6 μM [^14C]Methyl a-D-glucopyranoside was prepared with the assay buffer. • 5) The cells were treated with 49 μL of the assay buffer, 1 μL of the serially diluted compound, and 50 μL of the 6 μM [^14C] isotope-labeled sugar solution at 37° C. for 2 hours. • 6) The liquid in the well was aspirated and the cells were rinsed three times with the stop buffer. • 7) The cells were lysed with 50 μL of 10% sodium hydroxide solution, the cell lysate was pipetted into a scintillation tube, and 2 mL of scintillation fluid was added. • 8) An isotope detector (Tricarb) was used to read. • 9) The data were processed by GraphPad Prism 5.0 software with the calculation formula: log(inhibitor) vs. response—Variable slope to give the IC50 value of the test compound.

Sequences of proteins named here, by UniProt entry; tags and fusion partners are left off.
UniProt P13866, whole entry: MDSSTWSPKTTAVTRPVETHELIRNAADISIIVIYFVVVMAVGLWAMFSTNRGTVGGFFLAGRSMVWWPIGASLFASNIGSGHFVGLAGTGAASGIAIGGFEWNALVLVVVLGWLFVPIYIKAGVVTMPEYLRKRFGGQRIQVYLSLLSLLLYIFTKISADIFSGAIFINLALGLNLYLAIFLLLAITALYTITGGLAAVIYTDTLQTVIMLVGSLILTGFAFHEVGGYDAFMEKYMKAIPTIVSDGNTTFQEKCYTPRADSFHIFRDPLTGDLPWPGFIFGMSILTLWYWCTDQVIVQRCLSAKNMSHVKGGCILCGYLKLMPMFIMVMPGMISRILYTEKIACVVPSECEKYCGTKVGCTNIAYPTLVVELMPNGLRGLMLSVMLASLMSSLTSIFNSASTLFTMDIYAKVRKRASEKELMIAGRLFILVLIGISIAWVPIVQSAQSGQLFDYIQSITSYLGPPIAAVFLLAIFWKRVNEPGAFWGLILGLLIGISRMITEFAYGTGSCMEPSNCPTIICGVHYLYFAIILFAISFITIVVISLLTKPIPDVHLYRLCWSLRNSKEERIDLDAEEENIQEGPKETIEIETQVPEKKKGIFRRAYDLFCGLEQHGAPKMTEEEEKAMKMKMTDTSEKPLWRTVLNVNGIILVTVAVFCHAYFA
UniProt P31639, whole entry: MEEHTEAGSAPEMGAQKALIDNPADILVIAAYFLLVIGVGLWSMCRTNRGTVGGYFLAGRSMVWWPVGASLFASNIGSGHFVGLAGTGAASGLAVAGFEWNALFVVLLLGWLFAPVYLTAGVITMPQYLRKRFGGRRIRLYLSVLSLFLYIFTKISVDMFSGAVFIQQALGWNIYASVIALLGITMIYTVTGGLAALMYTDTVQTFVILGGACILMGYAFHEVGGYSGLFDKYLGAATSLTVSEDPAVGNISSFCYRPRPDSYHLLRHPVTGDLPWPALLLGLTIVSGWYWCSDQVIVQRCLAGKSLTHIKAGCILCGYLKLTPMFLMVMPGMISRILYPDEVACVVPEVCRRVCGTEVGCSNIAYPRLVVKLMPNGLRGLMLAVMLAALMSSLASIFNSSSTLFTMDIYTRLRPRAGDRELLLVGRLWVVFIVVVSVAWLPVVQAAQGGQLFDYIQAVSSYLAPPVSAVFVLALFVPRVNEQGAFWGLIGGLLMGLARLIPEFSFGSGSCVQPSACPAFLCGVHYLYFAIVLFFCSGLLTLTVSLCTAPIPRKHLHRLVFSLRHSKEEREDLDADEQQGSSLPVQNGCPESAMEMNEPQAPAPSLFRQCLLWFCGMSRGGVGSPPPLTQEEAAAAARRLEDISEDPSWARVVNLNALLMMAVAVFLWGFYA

Consider `CS[C@H]1O[C@@H](c2cc(C)c(Cl)c(Cc3ccc(OC4CCN(C(=O)C[C@H](N)Cc5cc(F)c(F)cc5F)CC4)cc3)c2)[C@H](O)[C@@H](O)[C@@H]1O`, for which the figures for the 50% inhibitory concentration (IC50) at Human-SGLT1 and at Human-SGLT2 were 50 nM and 3.3 nM, respectively.
Taken in the same sequence, the figures for `CS[C@H]1O[C@@H](c2cc(Cc3ccc(OC4CCN(C(=O)C[C@H](N)Cc5cc(F)c(F)cc5F)CC4)cc3)c(Cl)cc2C)[C@H](O)[C@@H](O)[C@@H]1O` were 21 nM and 1.5 nM.
Consider `CCc1ccc([C@@H]2O[C@H](SC)[C@@H](O)[C@H](O)[C@H]2O)cc1Cc1ccc(OC2CCN(C(=O)C[C@H](N)Cc3cc(F)c(F)cc3F)C2)cc1` (single isomer, unassigned) [WXD001], for which the IC50 – broadly, the midpoint of a concentration-inhibition curve – at Human-SGLT1 was 0.7 nM; at Human-SGLT2, 6.5 nM.
For the compound `CCc1ccc([C@@H]2O[C@H](SC)[C@@H](O)[C@H](O)[C@H]2O)cc1Cc1ccc(OC2CCN(C(=O)C[C@H](N)Cc3cc(F)c(F)cc3F)C2)cc1` (single isomer, unassigned) [WXD002], the values for the IC50 on Human-SGLT1 and at Human-SGLT2 were 0.5 nM and 2.9 nM, respectively.

(Values after patent US12258367B2, “Glucoside derivative that acts as SGLT1 inhibitor and application thereof” (MEDSHINE DISCOVERY INC., priority 2019, dated 2025).)
